Here are results for one molecule from patent US6689753B1, “β sheet breaker peptide analogs that inhibit β pleated sheet formation in amyloid β-peptide” (Axonyx, Inc., priority 1999, dated 2004).

Amino acid sequences for entries named in this document (tags omitted). Residues count along the entry.
UniProt P05067, 672-713: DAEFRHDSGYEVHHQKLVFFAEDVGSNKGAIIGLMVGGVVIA

This test addresses Aβ1-42 amyloid deposits (Homo sapiens, UniProt P05067). The settings on record: 1.3 mg infused into lateral ventricle over three weeks, starting 7 days after Aβ1-42, FIG. 6.

Each structure is given as a SMILES string. Residues, ends and D or L forms follow the SMILES beside them.

Consider `CC(=O)N[C@@H](CC(C)C)C(=O)N1CCC[C@H]1C(=O)N[C@@H](Cc1ccccc1)C(=O)N[C@@H](Cc1ccccc1)C(=O)N[C@@H](CC(=O)O)C(N)=O` [Ac-iAβ5-Am, Ac-Leu Pro Phe Phe Asp-Am] (Ac-LPFFD-NH2), for which the “dissolution of preformed amyloid plaque in the amygdala” value is reported as 30% and the “dissolution of the deposits located near the ventricle” value is listed as 83%.
